Some compounds may have been tested in ways that are not shown here.
Key:
tomato plant leaves = assay: Phytotoxicity study: number of injured leaves after foliar application; conditions: for Number of injured leaves: 100 mM nutrient alone, one foliar application
[1] = test system: tomato leaf transpiration; assay: Tomato leaf transpiration inhibition after foliar application (LI-1600 Steady State Porometer); type: in vivo, Tomato (variety: Rutgers)

For ammonium nitrate, the “Phytotoxicity (in words)” value (tomato plant leaves; 100 mM alone, beginning 5 days after treatment) was “showed phytotoxicity”, the “Number of injured leaves” value (tomato plant leaves; 5 days after treatment) was 8.2 and the “Number of injured leaves” value (tomato plant leaves; 10 days after treatment) was 14.8. The “Transpiration rate (% of control)” value ([1]; 1 mM alone, foliar, 1 day after treatment) was 107 % of control, the “Transpiration rate (% of control)” value ([1]; 1 mM alone, foliar, 2 days after treatment) was 107 % of control and the “Transpiration rate (% of control)” value ([1]; 1 mM alone, foliar, 3 days after treatment) was 106 % of control. For the same substance, the “Transpiration rate (% of control)” value ([1]; 1 mM alone, foliar, 4 days after treatment) was 83 % of control, the “Effect on PBI-429 performance for transpiration inhibition (in words)” value ([1]; 1 mM ammonium nitrate with 25 ppm PBI-429) was “did not affect PBI-429 performance for transpiration inhibition” and the “Transpiration rate (% of control)” value ([1]; 10 mM alone, foliar, 1 day after treatment) was 95 % of control. For the same substance, the “Transpiration rate (% of control)” value ([1]; 10 mM alone, foliar, 2 days after treatment) was 95 % of control, the “Transpiration rate (% of control)” value ([1]; 10 mM alone, foliar, 3 days after treatment) was 131 % of control and the “Transpiration rate (% of control)” value ([1]; 10 mM alone, foliar, 4 days after treatment) was 106 % of control. For the same substance, the “Effect on PBI-429 performance for transpiration inhibition (in words)” value ([1]; 10 mM ammonium nitrate with 25 ppm PBI-429) was “improved PBI-429 performance for transpiration inhibition”, the “Transpiration rate (% of control)” value ([1]; 100 mM alone, foliar, 1 day after treatment) was 97 % of control and the “Transpiration rate (% of control)” value ([1]; 100 mM alone, foliar, 2 days after treatment) was 97 % of control. For the same substance, the “Transpiration rate (% of control)” value ([1]; 100 mM alone, foliar, 3 days after treatment) was 128 % of control, the “Transpiration rate (% of control)” value ([1]; 100 mM alone, foliar, 4 days after treatment) was 107 % of control and the “Effect on tomato leaf transpiration (in words)” value ([1]; 1, 10 or 100 mM alone, foliar, 4-day experimental period) was “Neither urea nor ammonium nitrate at any of three tested concentrations significantly reduced tomato leaf transpiration”.
